Measured values as given in patent publication US10220090B2, “BCMA Antigen binding proteins” (Amgen Inc., priority 2012, dated 2019).
Changes are numbered by the printed parent chain.

Chains of the proteins cited; added tags and fusions are not shown. A line that says so, or that is headed by a name, gives the form on record, which may keep a tag or linker.
UniProt Q02223, with tags, fused parts or gaps: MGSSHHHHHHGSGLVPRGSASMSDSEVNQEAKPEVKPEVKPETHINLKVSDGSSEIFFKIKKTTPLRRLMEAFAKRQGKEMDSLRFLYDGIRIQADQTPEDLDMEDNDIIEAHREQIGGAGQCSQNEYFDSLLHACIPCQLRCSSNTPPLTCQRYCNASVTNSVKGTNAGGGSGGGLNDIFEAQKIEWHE

B1: Ab-3: anti-huBCMA mAb, heavy chain SEQ ID NO:278, light chain SEQ ID NO:284 (antibody)
heavy: EVQLLESGGGLVQPGGSLRLSCAASGFTFSSYAMNWVRQAPGKGLEWVSAISVGGDTYYADSVKGRFTISRDNSKNTLYLQVNSLRAEDSAVYYCAKDQVTLVRGVWYYYGLDVWGQGTTVTVSSASTKGPSVFPLAPSSKSTSGGTAALGCLVKDYFPEPVTVSWNSGALTSGVHTFPAVLQSSGLYSLSSVVTVPSSSLGTQTYICNVNHKPSNTKVDKKV[omitted - human IgG1 Fc]
light: DIVLTQSPLSLPVTPGEPASISCRSSQSLLHSNGNNYLDWYLQKPGQSPHLLISLGSQRTSGVPDRFSGSGSGTDFTLKISRVEAEDVGVYYCMQALQPPRRFGQGTKLEIKRTVAAPSVFIFPPSDEQLKSGTASVVCLLNNFYPREAKVQWKVDNALQSGNSQESVTEQDSKDSTYSLSSTLTLSKADYEKHKVYACEVTHQGLSSPVTKSFNRGEC
B2: Ab-2: anti-huBCMA mAb, heavy chain SEQ ID NO:276, light chain SEQ ID NO:282 (antibody)
heavy: B1 heavy with V82M, S90T, L102M
light: B1 light with L4M

Columns and labels:
[1] = target: recombinant human (rhu) BCMA (Homo sapiens, UniProt Q02223); assay: Biacore T200 biosensor analysis, rhu BCMA (Example 16); assay type: binding
Experimental: (§1) Assay conditions: Biosensor analysis was conducted at 25° C. in a HBS-P buffer system (10 mM HEPES pH 7.4, 150 mM NaCl, and 0.5% Surfactant P20) using a Biacore T200 optical biosensor equipped with a CM5 sensor chip according to the manufacturer's general protocol. The autosampler was maintained at 8° C.
(§2) Surface Preparation: Goat anti-human IgG capture antibody (Jackson Laboratories; 109-005-098) was immobilized to all flow cells of the sensor chip using standard amine coupling chemistry (9,000 RU). This surface type provided a format for reproducibly capturing fresh analysis antibodies (ligand) after each regeneration step.
(§3) Ligand Preparation: Flow cells 1, 2, and 3 were used to analyze captured anti-BCMA antibodies (˜400-500 RU) while flow cell 4 was used as the reference flow cell.
(§4) Analyte Preparation: Six rBCMA concentrations ranging from 75.0 to 0.309 nM (3-fold dilutions) were prepared in running buffer. The rrat BCMA fusion protein (GS::6×His::Sumo::ratBCMA(aa 2-49)::GGS::G3::Avi) sequence:
(§5) Interaction Parameters: Each of the six analyte sample concentrations were run in duplicate and in a mixed order, as a means of assessing the reproducibility of binding and managing potential systematic bias to the order of injection. Multiple blank (buffer) injections also were run and used to assess and subtract system artifacts. The association and dissociation phases for all analyte concentrations were monitored for 300 s and 3600 s, respectively, at a flow rate of 50 uL/min.
(§6) Surface Regeneration: The surface was regenerated with 10 mM glycine, pH 1.5 for 30 s, at a flow rate of 50 uL/min.
(§7) Model/Fit: The data was aligned, double referenced, and fit using Scrubber 2™ software, which is an SPR data processing and non-linear least squares regression fitting program. First, a dissociation rate coefficient (kd) was determined from the first 600 s of the dissociation phase data. Second, the dissociation rate coefficient was applied as a fixed parameter in the global fit of the 300 s association phase data using a 1:1 binding model to determine the association rate coefficient (ka) and the Rmax value.

[2] = Differential Scanning Calorimetry (DSC) thermostability; assay type: physicochemical; details: DSC, full-length antibody
Excerpt: Differential Scanning calorimetry (DSC) was used to compare the thermostability of parent and engineered antibodies. DSC is a thermodynamical tool for direct assessment of the heat energy uptake, which occurs in a sample within a regulated increase or decrease in temperature. DSC is commonly employed to assess the thermal and conformational stability of a protein. The melting temperature of a protein, or of individual domains, can be obtained from the DSC profile, and if the reaction is reversible the thermodynamic parameters of the unfolding can be determined. A protein is considered more thermostable when the Tm (transition temperature) is higher. When thermostability data are compared to other bioanalytical methods, like size exclusion chromatography (SEC), it has been observed that a correlation between greater thermostability (higher Tm) and decreased aggregation. Antibodies with a higher Tm and decreased aggregation formation have the potential for improved long-term stability thus potentially making better biotherapeutics.
DSC was carried out using a MicroCal™ VP-Capillary DSC system (GE Healthcare, Piscataway, N.J.) equipped with an auto-sampler. The temperature differences between the reference and sample cells are continuously measured, and calibrated to power units. For example, the full-length antibodies shown in TABLE 10 were diluted to 0.5 mg/mL in a buffered solution. The solution reference and protein samples were measured in a 135 μL cell from 20 to 110° C. at a heating rate of 60° C./hour. The pre-scan was set at 15 minutes while the filtering period was 10 seconds. Signal from the blank buffer solution was used for baseline subtraction. The data analysis was performed using MicroCal™ Origin 7 software. Heat capacity during protein melting was calculated by normalizing over protein concentration.

pI (Whole) of antibodies = assay type: physicochemical; details: method not stated
[3] = system: recombinant rat (rrat) BCMA; assay: Biacore T200 biosensor analysis, rrat BCMA (Example 16); assay type: binding
Experimental: as §1, §2, §3, §4, §5, §6, §7

Row | Molecule | Rmax (RU) [1] [RU] | ka [1] [M⁻¹ s⁻¹] | kd [1] [s⁻¹] | Tm [2] [°C] | pI (Whole) (pI (Whole) of antibodies) | ka [3] [M⁻¹ s⁻¹] | kd [3] [s⁻¹]
1 | B1 | 40.2 | 565000 | 0.000424 | 79 | 8.55 | 626000 | 0.00129
2 | B2 | 52.5 | 638000 | 0.000707 | 82.5 | 8.55 | 597000 | 0.0014
